Where two headings read alike, the source gives them in different places.
Columns and labels:
[1] = biological target: human melanocortin 4 receptor (MC4R) (Homo sapiens, UniProt P32245); assay: cAMP accumulation assay (HTRF), antagonist and/or agonist activity at MC4R (Example 1, Table 13, FIGS. 5-8); conditions: for Top (%): top of curve
[2] = biological target: human melanocortin 3 receptor (MC3R) (Homo sapiens, UniProt P41968); assay: cAMP accumulation assay (HTRF), antagonist and/or agonist activity at MC3R (Example 1, Table 12, FIGS. 1-4)
[3] = biological target: melanocortin 1 receptor (MC1R) (Homo sapiens, UniProt Q01726); assay: cAMP accumulation assay (HTRF), agonist and/or antagonist activity at MC1R (Example 1, Table 11); conditions: dose-response; for EC50: cAMP
[4] = biological target: melanocortin 5 receptor (MC5R) (Homo sapiens, UniProt P33032); assay: cAMP accumulation assay (HTRF), agonist and/or antagonist activity at MC5R (Example 1, Table 14); conditions: dose-response against MC5R; for Top (%): top of curve
[5] = Table 13, dose-response against MC4R, cAMP
[6] = MC3R, antagonist activity, dose-response, cAMP
[7] = MC3R, antagonist activity, dose-response
[8] = read-out: IC50 (antagonist activity on MC3R), cAMP levels, antagonist

Sequences of proteins named here, by UniProt entry; tags and fusion partners are left off.
UniProt P32245, whole entry: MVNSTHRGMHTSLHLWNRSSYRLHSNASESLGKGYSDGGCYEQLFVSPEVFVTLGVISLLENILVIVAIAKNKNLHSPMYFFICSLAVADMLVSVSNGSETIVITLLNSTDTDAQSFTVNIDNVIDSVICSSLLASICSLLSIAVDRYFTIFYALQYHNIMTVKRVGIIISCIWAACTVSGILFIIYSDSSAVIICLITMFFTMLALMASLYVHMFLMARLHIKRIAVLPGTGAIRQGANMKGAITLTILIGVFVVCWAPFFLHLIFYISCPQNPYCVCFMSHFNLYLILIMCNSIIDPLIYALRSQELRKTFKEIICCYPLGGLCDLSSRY
UniProt P41968, whole entry: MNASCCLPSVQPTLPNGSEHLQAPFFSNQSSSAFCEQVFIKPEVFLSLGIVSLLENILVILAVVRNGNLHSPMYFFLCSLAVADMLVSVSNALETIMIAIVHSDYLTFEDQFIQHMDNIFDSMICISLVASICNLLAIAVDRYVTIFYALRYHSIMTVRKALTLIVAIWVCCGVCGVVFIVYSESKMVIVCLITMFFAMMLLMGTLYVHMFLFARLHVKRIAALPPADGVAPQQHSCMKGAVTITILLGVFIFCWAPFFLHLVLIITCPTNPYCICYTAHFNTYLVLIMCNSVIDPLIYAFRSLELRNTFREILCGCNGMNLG
UniProt Q01726, whole entry: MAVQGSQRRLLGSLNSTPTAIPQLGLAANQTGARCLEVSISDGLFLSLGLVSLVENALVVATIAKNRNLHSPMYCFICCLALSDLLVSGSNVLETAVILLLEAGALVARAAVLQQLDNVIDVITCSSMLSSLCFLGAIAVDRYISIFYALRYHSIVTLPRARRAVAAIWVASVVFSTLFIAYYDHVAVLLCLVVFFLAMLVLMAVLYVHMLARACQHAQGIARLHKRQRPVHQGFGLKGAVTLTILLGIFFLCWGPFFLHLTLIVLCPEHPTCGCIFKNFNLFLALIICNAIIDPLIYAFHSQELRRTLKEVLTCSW
UniProt P33032, whole entry: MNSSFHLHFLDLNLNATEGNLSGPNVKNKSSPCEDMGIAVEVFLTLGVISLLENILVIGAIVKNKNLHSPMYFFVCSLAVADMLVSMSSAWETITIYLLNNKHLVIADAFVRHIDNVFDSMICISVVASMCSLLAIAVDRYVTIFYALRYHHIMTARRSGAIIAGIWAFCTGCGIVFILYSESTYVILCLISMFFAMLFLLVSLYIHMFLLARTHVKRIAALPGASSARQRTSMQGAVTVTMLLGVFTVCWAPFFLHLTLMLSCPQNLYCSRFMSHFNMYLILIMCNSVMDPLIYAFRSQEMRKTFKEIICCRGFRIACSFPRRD

CCCC[C@H](NC(C)=O)C(=O)N[C@H]1CC(=O)NCCCC[C@@H](C(=O)N[C@H](CC(=O)O)C(=O)N2CCC[C@@H]2C(N)=O)NC(=O)[C@H](Cc2c[nH]c3ccccc23)NC(=O)[C@H](CCCNC(=N)N)NC(=O)[C@@H](Cc2ccc3ccccc3c2)NC(=O)[C@@H]2CCCN2C1=O
IC50 [1, 5]: 30 nM
IC50 [2, 6]: 3.49 nM
EC50 [3]: 27 nM
EC50 [4]: 0.15 nM

CC(=O)N1CCC[C@@H]1C(=O)N[C@H]1CC(=O)NCCCC[C@@H](C(=O)N[C@@H](C(=O)N2CCC[C@@H]2C(N)=O)C(C)C)NC(=O)[C@H](Cc2c[nH]c3ccccc23)NC(=O)[C@H](CCCNC(=N)N)NC(=O)[C@@H](Cc2ccc3ccccc3c2)NC(=O)[C@@H]2CCCN2C1=O
IC50 [1, 5]: > 1000 nM
IC50 [2, 6]: 19.2 nM
EC50 [3]: > 1000 nM
EC50 [4]: 95 nM

CCCC[C@H](NC(C)=O)C(=O)N[C@H]1CC(=O)NCCCC[C@@H](C(=O)N[C@@H](C(=O)N2CCC[C@@H]2C(N)=O)C(C)C)NC(=O)[C@H](Cc2c[nH]c3ccccc23)NC(=O)[C@H](CCCNC(=N)N)NC(=O)[C@@H](Cc2ccc3ccccc3c2)NC(=O)[C@H](CC(C)C)NC1=O
IC50 [1, 5]: 14 nM
IC50 [2, 6]: 17.6 nM
EC50 [3]: 47 nM
EC50 [4]: 0.05 nM

CC(=O)N[C@@H](C(=O)N[C@H]1CC(=O)NCCCC[C@@H](C(=O)N[C@@H](C(=O)N2CCC[C@@H]2C(N)=O)C(C)C)NC(=O)[C@H](Cc2c[nH]c3ccccc23)NC(=O)[C@H](CCCNC(=N)N)NC(=O)[C@@H](Cc2ccc3ccccc3c2)NC(=O)[C@@H]2CCCN2C1=O)C(C)C
IC50 [1, 5]: 160 nM
IC50 [2, 6]: 2.97 nM
EC50 [3]: 430 nM
EC50 [4]: 15 nM

CCCC[C@H](NC(C)=O)C(=O)N[C@@H]1CSSC(C)(C)[C@@H](C(=O)N[C@@H](C(=O)N2CCC[C@@H]2C(N)=O)C(C)C)NC(=O)[C@H](Cc2c[nH]c3ccccc23)NC(=O)[C@H](CCCNC(=N)N)NC(=O)[C@@H](Cc2ccc3ccccc3c2)NC(=O)[C@@H]2CCCN2C1=O
IC50 [1, 5]: 23 nM
IC50 [2, 6]: 2.75 nM
EC50 [3]: 3.5 nM
EC50 [4]: 0.35 nM

CC(=O)N[C@H](CCC(N)=O)C(=O)N[C@H]1CC(=O)NCCCC[C@@H](C(=O)N[C@@H](C(=O)N2CCC[C@@H]2C(N)=O)C(C)C)NC(=O)[C@H](Cc2c[nH]c3ccccc23)NC(=O)[C@H](CCCNC(=N)N)NC(=O)[C@@H](Cc2ccc3ccccc3c2)NC(=O)[C@@H]2CCCN2C1=O
IC50 [1, 5]: > 1000 nM
IC50 [2, 6]: 460 nM
EC50 [3]: > 1000 nM
EC50 [4]: 45 nM

CCCC[C@H](NC(C)=O)C(=O)N[C@H]1CC(=O)NCCCC[C@@H](C(=O)N[C@@H](C(=O)N2CCC[C@@H]2C(N)=O)C(C)C)NC(=O)[C@H](Cc2c[nH]c3ccccc23)NC(=O)[C@H](CCCNC(=N)N)NC(=O)[C@@H](Cc2ccc3ccccc3c2)NC(=O)[C@H](Cc2c[nH]cn2)NC(=O)[C@@H]2CCCN2C1=O
Hill Coefficient [1, 5]: 0.89
IC50 [1, 5]: 27.2 nM
Top (%) [1, 5]: 74.47%
Hill Coefficient [2, 7]: 0.97
Top [2, 7]: 89.34%
IC50 [2, 6]: 26.2 nM
Hill Coefficient [3]: 1.19
Top [3]: 100.65%
EC50 [3]: 22.3 nM
EC50 [4]: 14 nM
Hill Coefficient [4]: 1.07

CCCC[C@H](NC(C)=O)C(=O)N[C@H]1CC(=O)NCCCC[C@@H](C(=O)N[C@@H](C(=O)N2CCC[C@@H]2C(N)=O)C(C)C)NC(=O)[C@H](Cc2c[nH]c3ccccc23)NC(=O)[C@H](CCCNC(=N)N)NC(=O)[C@@H](Cc2ccc3ccccc3c2)NC(=O)[C@H](Cc2c[nH]cn2)NC(=O)[C@@H]2CCCN2C(=O)[C@H](Cc2ccccc2)NC(=O)[C@H](Cc2ccccc2)NC1=O
Hill Coefficient [1, 5]: 1.49
IC50 [1, 5]: 54.9 nM
Top (%) [1, 5]: 81.82%
Hill Coefficient [2, 7]: 1.33
Top [2, 7]: 92.55%
IC50 [2, 6]: 201 nM
Hill Coefficient [3]: 2.04
Top [3]: 99.10%
EC50 [3]: 29 nM
EC50 [4]: 10.5 nM
Hill Coefficient [4]: 1.52
Top (%) [4]: 100.67%

CCCC[C@H](NC(C)=O)C(=O)N[C@H]1CC(=O)NCCCC[C@@H](C(=O)N[C@@H](C(=O)N[C@H](CC(=O)O)C(N)=O)C(C)C)NC(=O)[C@H](Cc2c[nH]c3ccccc23)NC(=O)[C@H](CCCNC(=N)N)NC(=O)[C@@H](Cc2ccc3ccccc3c2)NC(=O)[C@@H]2CCCN2C1=O
IC50 [1, 5]: 520 nM
IC50 [2, 6]: 7 nM
EC50 [3]: 58 nM
EC50 [4]: 1.4 nM

CCCC[C@H](NC(C)=O)C(=O)N[C@H]1CC(=O)NCCCC[C@@H](C(=O)N[C@H](CC(C)C)C(=O)N2CCC[C@@H]2C(N)=O)NC(=O)[C@H](Cc2c[nH]c3ccccc23)NC(=O)[C@H](CCCNC(=N)N)NC(=O)[C@@H](Cc2ccc3ccccc3c2)NC(=O)[C@H](Cc2c[nH]cn2)NC(=O)[C@H](Cc2ccccc2)NC1=O
Hill Coefficient [1, 5]: 1.46
IC50 [1, 5]: 24.4 nM
Top (%) [1, 5]: 94.09%
Hill Coefficient [2, 7]: 1.08
Top [2, 7]: 89.22%
IC50 [2, 6]: 20.4 nM
Hill Coefficient [3]: 1.07
Top [3]: 99.70%
EC50 [3]: 0.86 nM
EC50 [4]: 2.04 nM
Hill Coefficient [4]: 1.05
Top (%) [4]: 101.67%

CCCC[C@H](NC(C)=O)C(=O)N[C@H]1CC(=O)NCCCC[C@@H](C(=O)N[C@H](CCCCN)C(=O)N2CCC[C@@H]2C(N)=O)NC(=O)[C@H](Cc2c[nH]c3ccccc23)NC(=O)[C@H](CCCNC(=N)N)NC(=O)[C@@H](Cc2ccc3ccccc3c2)NC(=O)[C@@H]2CCCN2C1=O
IC50 [1, 5]: 2.1 nM
IC50 [2, 6]: 0.74 nM
EC50 [3]: 0.13 nM
EC50 [4]: 0.05 nM

CC(=O)NCC(=O)N[C@H]1CC(=O)NCCCC[C@@H](C(=O)N[C@@H](C(=O)N2CCC[C@@H]2C(N)=O)C(C)C)NC(=O)[C@H](Cc2c[nH]c3ccccc23)NC(=O)[C@H](CCCNC(=N)N)NC(=O)[C@@H](Cc2ccc3ccccc3c2)NC(=O)[C@@H]2CCCN2C1=O
IC50 [1, 5]: 470 nM
IC50 [2, 6]: 12.7 nM
EC50 [3]: > 1000 nM
EC50 [4]: 30 nM

CCCC[C@H](NC(C)=O)C(=O)N[C@H]1CC(=O)NCCCC[C@@H](C(=O)N[C@@H](CC(=O)O)C(=O)N2CCC[C@@H]2C(N)=O)NC(=O)[C@H](Cc2c[nH]c3ccccc23)NC(=O)[C@H](CCCNC(=N)N)NC(=O)[C@@H](Cc2ccc3ccccc3c2)NC(=O)[C@@H]2CCCN2C1=O
IC50 [1, 5]: 500 nM
IC50 [2, 6]: 12.4 nM
EC50 [3]: 100 nM
EC50 [4]: 1.9 nM

CCCC[C@H](NC(C)=O)C(=O)N[C@H]1CC(=O)NCCCC[C@@H](C(=O)N[C@@H](C(=O)N[C@@H](C(=O)N2CCC[C@@H]2C(N)=O)C(C)C)C(C)C)NC(=O)[C@H](Cc2c[nH]c3ccccc23)NC(=O)[C@H](CCCNC(=N)N)NC(=O)[C@@H](Cc2ccc3ccccc3c2)NC(=O)[C@@H]2CCCN2C1=O
IC50 [1, 5]: 33 nM
IC50 [2, 6]: 23 nM
EC50 [3]: 82 nM
EC50 [4]: 3.8 nM

CSCC[C@@H](NC(C)=O)C(=O)N[C@H]1CC(=O)NCCCC[C@@H](C(=O)N[C@@H](C(=O)N2CCC[C@@H]2C(N)=O)C(C)C)NC(=O)[C@H](Cc2c[nH]c3ccccc23)NC(=O)[C@H](CCCNC(=N)N)NC(=O)[C@@H](Cc2ccc3ccccc3c2)NC(=O)[C@@H]2CCCN2C1=O
IC50 [1, 5]: 680 nM
IC50 [2, 6]: 2.64 nM
EC50 [3]: 450 nM
EC50 [4]: 1.8 nM

CCCC[C@H](NC(C)=O)C(=O)N[C@H]1CC(=O)NCCCC[C@@H](C(=O)N[C@@H](CC(N)=O)C(=O)N2CCC[C@@H]2C(N)=O)NC(=O)[C@H](Cc2c[nH]c3ccccc23)NC(=O)[C@H](CCCNC(=N)N)NC(=O)[C@@H](Cc2ccc3ccccc3c2)NC(=O)[C@@H]2CCCN2C1=O
IC50 [1, 5]: 15 nM
IC50 [2, 6]: 1.15 nM
EC50 [3]: 4.7 nM
EC50 [4]: 0.12 nM

CCCC[C@H](NC(C)=O)C(=O)N[C@@H](CC(=O)O)C(=O)N1CCC[C@H]1C(=O)N[C@H](Cc1ccc2ccccc2c1)C(=O)N[C@@H](CCCNC(=N)N)C(=O)N[C@@H](Cc1c[nH]c2ccccc12)C(=O)N[C@@H](CCCCN)C(=O)N[C@@H](C(=O)N1CCC[C@@H]1C(N)=O)C(C)C
Hill Coefficient [1, 5]: 1.19
IC50 [1, 5]: 16.4 nM
Top (%) [1, 5]: 94.30%
Hill Coefficient [2, 7]: 0.83
Top [2, 7]: 94.81%
IC50 [2, 6]: 17.2 nM
Hill Coefficient [3]: 0.91
Top [3]: 95.46%
EC50 [3]: 5.79 nM
EC50 [4]: 0.024 nM
Hill Coefficient [4]: 1.15
Top (%) [4]: 101.47%

CCCC[C@H](NC(C)=O)C(=O)N[C@H]1CC(=O)NCCCC[C@@H](C(=O)N[C@@H](C(=O)N2CCC[C@@H]2C(N)=O)C(C)C)NC(=O)[C@H](Cc2c[nH]c3ccccc23)NC(=O)[C@H](CCCNC(=N)N)NC(=O)[C@@H](Cc2ccc3ccccc3c2)NC(=O)[C@H](C)NC1=O
IC50 [1, 5]: 98 nM
IC50 ([1]; read-out: IC50 (antagonist activity on MC4R), cAMP levels, antagonist): < 10000 nM
IC50 [2, 6]: 3.29 nM
IC50 [2, 8]: < 10000 nM
EC50 [3]: 34 nM
EC50 [4]: 0.04 nM

CCCC[C@H](NC(C)=O)C(=O)N[C@H]1CC(=O)NCCCC[C@@H](C(=O)N[C@@H](C(=O)N2CCC[C@@H]2C(N)=O)C(C)C)NC(=O)[C@H](Cc2c[nH]c3ccccc23)NC(=O)[C@H](CCCN)NC(=O)[C@@H](Cc2ccc3ccccc3c2)NC(=O)[C@@H]2CCCN2C1=O
IC50 [1, 5]: > 1000 nM
IC50 [2, 6]: 290 nM
IC50 [2, 8]: < 10000 nM
EC50 [3]: 430 nM
EC50 [4]: 9.1 nM

CCCC[C@H](NC(C)=O)C(=O)N[C@@H](CCCC)C(=O)N[C@H]1CC(=O)NCCCC[C@@H](C(=O)N[C@@H](C(=O)N2CCC[C@@H]2C(N)=O)C(C)C)NC(=O)[C@H](Cc2c[nH]c3ccccc23)NC(=O)[C@H](CCCNC(=N)N)NC(=O)[C@@H](Cc2ccc3ccccc3c2)NC(=O)[C@@H]2CCCN2C1=O
IC50 [1, 5]: 350 nM
IC50 [2, 6]: 10.4 nM
EC50 [3]: 110 nM
EC50 [4]: 0.08 nM
